Test results from PubChem BioAssay AID849 (SRMLSC, 2007).
Calls of active or inactive are those of the source. The rule behind the calls is not given here.

Test system: Saccharomyces cerevisiae lifespan shortening, growth inhibition
Test: yeast lifespan shortening compounds, dose response (AID 849);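 note: yeast growth read as optical density after two days at 30 degrees C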

## O=[N+]([O-])c1cc([N+](=O)[O-])c(-c2ccn[nH]2)s1
  IC50: inactive: > 100 µM
